For two molecules, Potency results are on record in PubChem BioAssay AID624094 (National Center for Advancing Translational Sciences (NCATS), 2012).

Sequences of proteins named here, by UniProt entry; tags and fusion partners are left off. A change or cut given only in a name is not applied to a line headed by its entry.
UniProt Q9HAZ1: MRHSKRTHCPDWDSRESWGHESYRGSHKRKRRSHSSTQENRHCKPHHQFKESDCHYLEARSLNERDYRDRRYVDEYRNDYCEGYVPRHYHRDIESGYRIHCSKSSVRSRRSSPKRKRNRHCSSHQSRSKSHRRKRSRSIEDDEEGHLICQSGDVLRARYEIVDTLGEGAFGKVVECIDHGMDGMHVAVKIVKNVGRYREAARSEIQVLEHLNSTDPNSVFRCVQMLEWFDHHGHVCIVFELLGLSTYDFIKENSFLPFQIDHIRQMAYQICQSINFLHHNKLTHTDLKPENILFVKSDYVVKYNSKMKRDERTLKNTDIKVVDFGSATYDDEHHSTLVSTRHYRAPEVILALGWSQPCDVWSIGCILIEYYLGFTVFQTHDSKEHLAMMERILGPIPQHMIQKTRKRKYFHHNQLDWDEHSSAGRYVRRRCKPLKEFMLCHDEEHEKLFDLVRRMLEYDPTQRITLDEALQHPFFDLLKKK

Molecules are shown by their SMILES. The list shows a part of the results, in another mix than the full data. Inconclusive results are not listed. The source made the active and inactive calls. Calls come from the whole dose curve; as a rule, active = well fitted inhibition curve with a large enough effect; inconclusive = small, poorly fitted or top-dose-only effect; inactive = flat fitted curve, though single readings scatter.

The target in the assay is Dual specificity protein kinase CLK4 (Homo sapiens) (UniProt Q9HAZ1). As to the kind of experiment: Confirmation Assay for Inhibitors of Clk4 (Kinase-Glo Assay): KU probe. The note with it: recombinant Clk4, Kinase-Glo ATP luminescence. The procedure: NIH Molecular Libraries Probe Production Centers Network [MLPCN] NIH Chemical Genomics Center [NCGC] MLPCN Grant: 1R03MH084827-01 Assay Submitter (PI): Tom Misteli NCGC Assay Overview: Clk4 (Invitrogen, cat# PV3839) was assayed using ATP and the RS repeat peptide (AnaSpec cat # 61722) as substrates. Following the Clk4 reaction, the remaining ATP levels were detected using Promega Kinase-Glo technology wherein the remaining ATP from the kinase reaction is detected using Ultra-Glo luciferase and D-luciferin which generates a bioluminescence signal from the ATP. The positive control for the assay was TG003 (Sigma-Aldrich, cat# 300801-52-9) which has been described as an inhibitor of Clk 4[1].
NCGC Assay Protocol Summary: Two uL/well of substrate-buffer solution (100 uM RS peptide, 1 uM ATP, 25 mM Tris pH7.5, 10 mM MgCl2, 0.5 mM EGTA, 2.5 mM DTT, 0.01% Triton X-100 final concentration) was dispensed into 1536-well, assay plates (Greiner, solid white medium-binding plates) with Aurora Discovery BioRAPTR Flying Reagent Dispenser (FRD; Beckton-Dickenson). Using a Kalypsys pin tool equipped with a 1536-pin tool, 23 nL of compound solution was transferred to the assay plate. […] Luminescence was detected with the ViewLux plate reader (Perkin Elmer, Waltham, MA) after 5 min incubation using a 5 second exposure time and 2x binning.

In the case of `c1cncc(CNc2ncncc2-c2ccc3c(c2)OCO3)c1`, the Potency was active: 9.23 µM.

For `c1nc(NCC2CCCC2)c2cc(-c3ccc4c(c3)OCO4)ccc2n1`, the Potency was active: 0.0519 µM.
